Tested on: CUTO14 xenografts
Settings: after four weeks of treatment; afatinib 6 mg/Kg daily PO; tarloxotinib 48 mg/Kg Qwx4 IP

For CN(C)CC=CC(=O)Nc1cc2c(Nc3ccc(F)c(Cl)c3)ncnc2cc1O[C@H]1CCOC1 [afatinib, N-[4-[(3-Chloro-4-fluorophenyl)amino]-7-[[(3S)-tetrahydro-3-furanyl]oxy]-6-quinazolinyl]-4(dimethylamino)-2-butenamide], which “Effect on tumor growth” value is on record?
The value was “did not alter tumor growth”.

— patent publication US11426409B2, “Compounds, compositions and methods for treating or preventing HER-driven drug-resistant cancers” (The Regents of the University of Colorado, priority 2017, dated 2022)
